# Data: article PMC8624105 (Viruses, 2021)
# How the values were obtained:
# [1] = test system: PDLIM7 PDZ1; test: holdup assay; format: binding, human; conditions: PDZ about 4 μM; two independent experiments
# [2] = test system: SHROOM3 PDZ1; test: holdup assay; format: binding, human; conditions: PDZ about 4 μM; two independent experiments
# [3] = test system: GRIP2 PDZ2; test: holdup assay; format: binding, human; conditions: PDZ about 4 μM; two independent experiments
# [4] = test system: SDCBP PDZ1; test: holdup assay; format: binding, human; conditions: PDZ about 4 μM; two independent experiments
# [5] = test system: HTRA2 PDZ1; test: holdup assay; format: binding, human; conditions: PDZ about 4 μM; two independent experiments
# [6] = test system: GIPC1 PDZ1; test: holdup assay; format: binding, human; conditions: PDZ about 4 μM; two independent experiments
# [7] = test system: SCRIB PDZ2; test: holdup assay; format: binding, human; conditions: PDZ about 4 μM; two independent experiments
# [8] = test system: PRX PDZ1; test: holdup assay; format: binding, human; conditions: PDZ about 4 μM; two independent experiments
# [9] = test system: PREX2 PDZ1; test: holdup assay; format: binding, human; conditions: PDZ about 4 μM; two independent experiments
# [10] = test system: RGS12 PDZ1; test: holdup assay; format: binding, human; conditions: PDZ about 4 μM; two independent experiments
# [11] = test system: SHROOM2 PDZ1; test: holdup assay; format: binding, human
# [12] = test system: ARHGAP21 PDZ1; test: holdup assay; format: binding, human; conditions: PDZ about 4 μM; two independent experiments
# [13] = test system: CARD11 PDZ1; test: holdup assay; format: binding, human; conditions: PDZ about 4 μM; two independent experiments
# [14] = test system: NHERF4 PDZ1; test: holdup assay; format: binding, human; conditions: PDZ about 4 μM; two independent experiments
# [15] = test system: InaDl PDZ2; test: holdup assay; format: binding, human; conditions: PDZ about 4 μM; two independent experiments
# [16] = test system: TIAM2 PDZ1; test: holdup assay; format: binding, human; conditions: PDZ about 4 μM; two independent experiments
# [17] = test system: HTRA4 PDZ1; test: holdup assay; format: binding, human; conditions: PDZ about 4 μM; two independent experiments
# [18] = test system: DLG2 PDZ1; test: holdup assay; format: binding, human; conditions: PDZ about 4 μM; two independent experiments
# [19] = test system: PARD6A PDZ1; test: holdup assay; format: binding, human; conditions: PDZ about 4 μM; two independent experiments
# [20] = test system: MPDZ PDZ2; test: holdup assay; format: binding, human; conditions: PDZ about 4 μM; two independent experiments
# [21] = test system: RHPN1 PDZ1; test: holdup assay; format: binding, human; conditions: PDZ about 4 μM; two independent experiments
# [22] = test system: GRIP2 PDZ4; test: holdup assay; format: binding, human; conditions: PDZ about 4 μM; two independent experiments
# [23] = test system: PDZRN4 PDZ1; test: holdup assay; format: binding, human; conditions: PDZ about 4 μM; two independent experiments
# [24] = test system: MAGI2 PDZ6; test: holdup assay; format: binding, human; conditions: PDZ about 4 μM; two independent experiments
# [25] = test system: MAGI3 PDZ4; test: holdup assay; format: binding, human; conditions: PDZ about 4 μM; two independent experiments
# [26] = test system: PPP1R9B PDZ1; test: holdup assay; format: binding, human; conditions: PDZ about 4 μM; two independent experiments
# [27] = test system: GRID2IP PDZ1; test: holdup assay; format: binding, human; conditions: PDZ about 4 μM; two independent experiments
# [28] = test system: SNX27; test: holdup assay; format: binding, human
# [29] = test system: MAST2; test: holdup assay; format: binding, human
# [30] = test system: DLG5 PDZ3; test: holdup assay; format: binding, human; conditions: PDZ about 4 μM; two independent experiments
# [31] = test system: NOS1 PDZ1; test: holdup assay; format: binding, human; conditions: PDZ about 4 μM; two independent experiments
# [32] = test system: DLG5 PDZ1; test: holdup assay; format: binding, human; conditions: PDZ about 4 μM; sd not given
# [33] = test system: InaDl PDZ9; test: holdup assay; format: binding, human; conditions: PDZ about 4 μM; two independent experiments
# [34] = test system: InaDl PDZ4; test: holdup assay; format: binding, human; conditions: PDZ about 4 μM; two independent experiments
# [35] = test system: SYNPO2L PDZ1; test: holdup assay; format: binding, human; conditions: PDZ about 4 μM; two independent experiments
# [36] = test system: SIPA1L2 PDZ1; test: holdup assay; format: binding, human; conditions: PDZ about 4 μM; two independent experiments
# [37] = test system: PDZD2 PDZ4; test: holdup assay; format: binding, human; conditions: PDZ about 4 μM; two independent experiments
# [38] = test system: DLG3 PDZ3; test: holdup assay; format: binding, human; conditions: PDZ about 4 μM; two independent experiments
# [39] = test system: TJP3 PDZ1; test: holdup assay; format: binding, human; conditions: PDZ about 4 μM; two independent experiments
# [40] = test system: DVL1 PDZ1; test: holdup assay; format: binding, human; conditions: PDZ about 4 μM; two independent experiments
# [41] = test system: GIPC2 PDZ1; test: holdup assay; format: binding, human; conditions: PDZ about 4 μM; two independent experiments
# [42] = test system: CARD14 PDZ1; test: holdup assay; format: binding, human; conditions: PDZ about 4 μM; two independent experiments
# [43] = test system: PDLIM2 PDZ1; test: holdup assay; format: binding, human; conditions: PDZ about 4 μM; two independent experiments
# [44] = test system: GIPC3 PDZ1; test: holdup assay; format: binding, human; conditions: PDZ about 4 μM; two independent experiments
# [45] = test system: human PDZome; test: holdup assay, PDZome-binding profile
# [46] = test system: SIPA1 PDZ1; test: holdup assay; format: binding, human; conditions: PDZ about 4 μM; two independent experiments
# [47] = test system: SCRIB PDZ3; test: holdup assay; format: binding, human
# [48] = test system: LNX1 PDZ2; test: holdup assay; format: binding, human; conditions: PDZ about 4 μM; sd not given
# [49] = test system: LNX1 PDZ3; test: holdup assay; format: binding, human; conditions: PDZ about 4 μM; two independent experiments
# [50] = PDZ about 4 μM, two independent experiments
# [51] = converted from BI, PDZ typically 4 μM, immobilized peptide 21 μM, listed as PBM peptide from ACE2 protein, read-out: Kd estimated
# [52] = converted from BI, PDZ typically 4 μM, immobilized peptide 21 μM
substance,measurement,setting,value
Biotin-(PEG3)-GFQNTDDVQTSF [ACE2 PBM peptide],BI (binding intensity),[1],-0.05
same,BI (binding intensity),[2],-0.04
same,BI (binding intensity),[3],0.02
same,BI (binding intensity),[4],-0.08
same,BI (binding intensity),[5],-0.08
same,BI (binding intensity),[6],0.12
same,BI (binding intensity),[7],-0.03
same,BI (binding intensity),[8],-0.03
same,BI (binding intensity),[9],-0.11
same,BI (binding intensity),[10],-0.02
same,BI (binding intensity),[11]; [50],0.26
same,Kd,[11]; [51],55.7 µM
same,BI (binding intensity),[12],0.09
same,BI (binding intensity),[13],0.01
same,BI (binding intensity),[14],0.05
same,BI (binding intensity),[15],-0.01
same,BI (binding intensity),[16],-0.12
same,BI (binding intensity),[17],-0.05
same,BI (binding intensity),[18],-0.01
same,BI (binding intensity),[19],-0.08
same,BI (binding intensity),[20],-0.05
same,BI (binding intensity),[21],0.16
same,BI (binding intensity),[22],-0.08
same,BI (binding intensity),[23],-0.05
same,BI (binding intensity),[24],0.02
same,BI (binding intensity),[25],-0.05
same,BI (binding intensity),[26],0.01
same,BI (binding intensity),[27],-0.03
same,BI (binding intensity),[28]; [50],0.87
same,Kd estimated,[28]; [52],best binder
same,BI (binding intensity),[29]; [50],0.72
same,Kd estimated,[29]; [52],micromolar range
same,Kd,"[29]; converted from BI, PDZ typically 4 μM, immobilized peptide 21 μM, read-out: Kd estimated",6.96 µM
same,BI (binding intensity),[30],-0.06
same,BI (binding intensity),[31],-0.02
same,BI (binding intensity),[32],-0.10
same,BI (binding intensity),[33],0.01
same,BI (binding intensity),[34],-0.01
same,BI (binding intensity),[35],-0.05
same,BI (binding intensity),[36],-0.03
same,BI (binding intensity),[37],-0.01
same,BI (binding intensity),[38],-0.02
same,BI (binding intensity),[39],-0.10
same,BI (binding intensity),[40],-0.14
same,BI (binding intensity),[41],-0.05
same,BI (binding intensity),[42],0.03
same,BI (binding intensity),[43],-0.05
same,BI (binding intensity),[44],-0.02
same,share of the human PDZome targeted,[45]; BI values higher than 0.2,about 5%
same,number of PDZ domains identified as binders,"[45]; BI values higher than 0.2, 266 human PDZ domains tested",14 PDZ domains
same,share of the human PDZome targeted,"[45]; BI values higher than 0.2, listed as ACE2 PBM",5%
same,BI of the 14 PDZ binders,"[45]; two independent experiments, significance threshold 0.2",higher than 0.2
same,BI (binding intensity),[46],-0.04
same,BI (binding intensity),[47]; [50],0.23
same,Kd,[47]; [51],69.1 µM
same,BI (binding intensity),[48],-0.07
same,BI (binding intensity),[49],-0.07
